Earlier results on one sequence are cited in PMC8515052, “PepVAE: Variational Autoencoder Framework for Antimicrobial Peptide Generation and Activity Prediction” (Frontiers in Microbiology, 2021).

Broadly, the MIC is the smallest concentration in the dilution series that meets the test's criterion for growth inhibition.

For the data set, the system named is E. coli NCIMB 11843. Details: method as in Norberg et al., 2011. To be noted: ref Norberg et al., 2011; cited from earlier work.

For the sequence VLNENLLA [caseicin B-B1], the MIC is not below 1250 µM.
